Patent publication US20190062394A1

Assays:
[1] = test system: Single-chain (non-destabilized) IL-12 #30
[2] = test system: Single-chain (non-destabilized) IL-12 #29
[3] = test system: Destabilized IL-12 #14
[4] = test system: Destabilized IL-12 #22

## human thrombin (489 Units/mg; Millipore)
[1]
  proteolytic digestion, 1 hour, reducing SDS-PAGE and anti-p40 Western blot: completely digested with only 5 mU of thrombin when flanked with spacers
[2]
  proteolytic digestion, 1 hour, reducing SDS-PAGE and anti-p40 Western blot: completely digested with only 5 mU of thrombin when flanked with spacers
[3]
  proteolytic digestion, 1 hour, reducing SDS-PAGE and anti-p40 Western blot: completely digested with only 5 mU of thrombin when flanked with spacers
[4]
  proteolytic digestion, 1 hour, reducing SDS-PAGE and anti-p40 Western blot: completely digested with only 5 mU of thrombin when flanked with spacers
